The assay deals with factor B (Homo sapiens, UniProt P00751). Briefly: factor B inhibition assay of Biological Example 1. The assay is classed as biochemical. The note with it: assay of Biological Example 1 (Table 1).

The chains behind the UniProt entries cited, without tags or fusion partners. Residues count along the entry.
UniProt P00751, 260-764 limits assumed: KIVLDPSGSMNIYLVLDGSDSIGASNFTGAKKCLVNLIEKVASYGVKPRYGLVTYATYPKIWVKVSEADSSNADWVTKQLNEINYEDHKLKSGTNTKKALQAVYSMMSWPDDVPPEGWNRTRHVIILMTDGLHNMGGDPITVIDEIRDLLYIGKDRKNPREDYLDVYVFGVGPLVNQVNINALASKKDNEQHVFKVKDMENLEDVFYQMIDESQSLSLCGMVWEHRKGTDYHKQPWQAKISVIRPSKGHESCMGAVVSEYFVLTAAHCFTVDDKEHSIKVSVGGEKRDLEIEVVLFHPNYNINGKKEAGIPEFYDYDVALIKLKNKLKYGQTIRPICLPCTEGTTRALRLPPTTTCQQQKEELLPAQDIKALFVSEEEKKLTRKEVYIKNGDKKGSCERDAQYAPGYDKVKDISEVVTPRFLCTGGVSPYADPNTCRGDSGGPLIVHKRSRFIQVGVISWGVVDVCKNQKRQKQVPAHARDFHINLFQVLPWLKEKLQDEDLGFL
UniProt Q91132, 23-649 partner limits assumed: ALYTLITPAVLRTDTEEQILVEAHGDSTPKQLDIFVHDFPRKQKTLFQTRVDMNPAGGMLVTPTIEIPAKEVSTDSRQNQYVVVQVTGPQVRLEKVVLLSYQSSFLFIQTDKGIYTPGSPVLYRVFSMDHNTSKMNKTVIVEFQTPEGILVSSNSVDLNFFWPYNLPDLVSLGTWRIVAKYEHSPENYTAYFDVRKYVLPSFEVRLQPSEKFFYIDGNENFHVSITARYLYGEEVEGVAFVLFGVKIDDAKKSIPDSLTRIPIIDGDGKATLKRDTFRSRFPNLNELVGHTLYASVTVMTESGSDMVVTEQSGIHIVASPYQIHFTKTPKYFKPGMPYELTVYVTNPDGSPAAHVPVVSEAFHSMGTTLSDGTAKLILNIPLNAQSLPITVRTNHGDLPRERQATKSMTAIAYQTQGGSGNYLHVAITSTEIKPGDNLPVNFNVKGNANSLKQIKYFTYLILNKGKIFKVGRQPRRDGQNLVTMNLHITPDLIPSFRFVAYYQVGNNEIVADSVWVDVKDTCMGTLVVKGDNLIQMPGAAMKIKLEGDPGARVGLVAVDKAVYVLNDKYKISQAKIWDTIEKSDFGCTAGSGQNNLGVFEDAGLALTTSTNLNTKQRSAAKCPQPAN
UniProt Q91132, 733-984 partner limits assumed: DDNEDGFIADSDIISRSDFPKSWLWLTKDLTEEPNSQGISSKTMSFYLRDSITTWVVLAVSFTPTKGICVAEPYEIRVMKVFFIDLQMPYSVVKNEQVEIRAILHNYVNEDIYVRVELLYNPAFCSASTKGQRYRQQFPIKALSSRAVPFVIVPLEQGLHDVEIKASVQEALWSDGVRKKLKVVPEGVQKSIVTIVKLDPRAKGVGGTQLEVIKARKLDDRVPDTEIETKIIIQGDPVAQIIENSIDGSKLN
UniProt Q91132, 1264-1642 partner limits assumed: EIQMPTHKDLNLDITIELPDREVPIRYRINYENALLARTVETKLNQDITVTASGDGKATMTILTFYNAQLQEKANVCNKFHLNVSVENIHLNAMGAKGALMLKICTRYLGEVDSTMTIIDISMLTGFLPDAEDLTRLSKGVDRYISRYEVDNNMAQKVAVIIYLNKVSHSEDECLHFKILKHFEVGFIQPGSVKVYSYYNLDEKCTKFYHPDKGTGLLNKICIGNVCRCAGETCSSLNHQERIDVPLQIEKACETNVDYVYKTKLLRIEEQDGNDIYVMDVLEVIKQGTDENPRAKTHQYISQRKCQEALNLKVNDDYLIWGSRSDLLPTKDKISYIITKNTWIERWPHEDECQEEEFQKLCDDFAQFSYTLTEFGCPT

Usually IC50 stands for the point on the concentration scale where inhibition reaches its midpoint. The low end stands for greater potency, the high end for weaker potency.

The molecule `CCc1cc(C)c2[nH]ccc2c1Cc1nc2cc(C#N)c(F)cc2[nH]1` returned an IC50 of 1190 nM.
